The list shows a part of the results, in another mix than the full data. Some structures show a salt or complex split into parts, the way the source records it. The source made the active and inactive calls.
Assay: modulators of yeast start codon fidelity, primary screen, whole organism, S. cerevisiae, single point, plate reader (AID 602363)
Settings: S. cerevisiae UUG-firefly luciferase reporter, luminescence/redox ratio; at 18.7 µM; active compounds read high

Row | Compound | activity score
1 | O=[N+]([O-])c1cc([N+](=O)[O-])c(Nc2ccccn2)c([N+](=O)[O-])c1 | inactive: -21.1%
2 | CC(C)CC(=O)NC(Sc1ccc(Cl)cc1)C(Cl)(Cl)Cl (configuration not stated) | inactive: -34.8%
3 | O=C(NC(Sc1ccncn1)C(Cl)(Cl)Cl)c1ccccc1 (configuration not stated) | inactive: -8.91%
4 | Oc1ccccc1CNc1ccccn1 | inactive: -12.3%
5 | COc1ccccc1OP(C)(=O)Nc1ccc(C)cc1C (configuration not stated) | inactive: -46.8%
6 | CP(=O)(Nc1ccccn1)Oc1ccccc1 (configuration not stated) | inactive: -15.9%
7 | CCc1ccc(OP(C)(=O)O)cc1 | inactive: -9.4%
8 | Cc1ccc(N/C(=N/P(=O)(N2CCOCC2)N2CCOCC2)N2CCOCC2)cc1 | inactive: 0.997%
9 | COc1ccccc1OP(C)(=O)Nc1ccc(Br)cc1 (configuration not stated) | inactive: -16.2%
10 | CN(C(=O)Cc1ccc(Cl)c(Cl)c1)[C@H]1CCCC[C@H]1N1CCCC1 | inactive: -1.88%
11 | Cc1ccc(OP(=O)(Nc2nccs2)Oc2ccc(C)cc2)cc1 | inactive: -15.6%
12 | COc1ccc(OP(C)(=O)Nc2ccccn2)cc1 (configuration not stated) | inactive: -9.84%
13 | CN(C)CCOC(=O)C(O)(c1ccccc1)C1CCCC1 (configuration not stated) | inactive: -10.2%
14 | Clc1ccc(Cl)c(NC2=NCC(CBr)S2)c1 (configuration not stated) | inactive: -15.6%
15 | CN1CCCC(OC(=O)C(c2ccccc2)c2ccccc2)C1 (configuration not stated) | inactive: 2.91%
16 | CP(=O)(Nc1ccc(Cl)cc1Cl)Oc1ccccc1 (configuration not stated) | inactive: -8.48%
17 | Nc1cccc2ccc([As](=O)(O)O)cc12 | inactive: 11.3%
18 | O=C(O)c1ccccc1[As](=O)(O)O | inactive: -5.52%
19 | CC(=O)Nc1ccc([As](=O)(O)O)cc1 | inactive: 5.91%
20 | CN(C)P(=O)(N(C)C)n1c(Nc2ccccc2)nnc1-c1ccccc1 | inactive: 4.18%
21 | O=C1C(O)=C([N+](=O)[O-])C(=O)C(O)=C1[N+](=O)[O-] | inactive: -11.5%
22 | CN(C(=O)Cc1ccc(Cl)c(Cl)c1)[C@H]1CCCC[C@@H]1N1CCCC1 | inactive: -6.74%
23 | COc1ccccc1OP(C)(=O)Nc1ccc(C)c(C)c1 (configuration not stated) | inactive: -11.3%
24 | CCOP(=O)(Nc1ccccc1)OCC | inactive: -15.1%
25 | O=[N+]([O-])c1cccc(NC2=NCC(CBr)S2)c1 (configuration not stated) | inactive: -7.6%

Row | Compound | activity score
26 | O=C(O)CNc1ccc([As](=O)(O)O)cc1 | inactive: -8.99%
27 | O=P1(N(CCCl)CCCl)OCCCS1 (configuration not stated) | inactive: -9.95%
28 | O=C(Nc1cc([As](=O)(O)O)ccc1O)c1ccccc1 | inactive: -13.8%
29 | CCOC(=O)c1ccc(NP(C)(=O)Oc2ccc(Cl)cc2)cc1 (configuration not stated) | inactive: 4.36%
30 | CP(=O)(OC12CC3CC(CC(C3)C1)C2)OC12CC3CC(CC(C3)C1)C2 | inactive: -5.67%
31 | C[N+]1=C2C=CC=CC=C2SC12C([N+](=O)[O-])=CC([N+](=O)[O-])=C[C-]2[N+](=O)[O-] (configuration not stated) | inactive: -37%
32 | Nc1ccc([As](=O)(O)c2ccc(N)cc2)cc1 | inactive: -12.8%
33 | CC(C)(C)c1ccc(OP(C)(=O)O)cc1 | inactive: -7.59%
34 | COc1ccccc1OP(C)(=O)Nc1ccccc1Br (configuration not stated) | inactive: -11%
35 | CP(=O)(Nc1ccc(Cl)cc1)Oc1ccc(F)cc1 (configuration not stated) | inactive: -9.68%
36 | CC(C)c1nc(Nc2ccccc2)n(P(=O)(N(C)C)N(C)C)n1 | inactive: -32%
37 | c1cc(-c2nn[nH]n2)ccc1-c1nn[nH]n1 | inactive: -17.1%
38 | CC1CCN(C(=O)Oc2c(Cl)cc(Cl)c3cccnc23)CC1 | inactive: -2.92%
39 | COc1ccc(C2=NCC(CBr)S2)cc1 (configuration not stated) | inactive: 1.32%
40 | COc1ccc(OP(C)(=O)Nc2ccc(Br)cc2)cc1 (configuration not stated) | inactive: 2.52%
41 | CCN(CC)CC(O)COC(=O)C(O)(c1ccccc1)C1CCCCC1 (configuration not stated) | inactive: -4.05%
42 | O=C(OCCCN1CCCC1)C(O)(c1ccccc1)C1CCCCC1 (configuration not stated) | inactive: -10.6%
43 | COc1ccccc1OP(C)(=O)Nc1c(C)n(C)n(-c2ccccc2)c1=O (configuration not stated) | inactive: 1.19%
44 | CC(=O)N1C2C3N(C(C)=O)C1C1N(C(C)=O)C(C(N1C(C)=O)N3C(C)=O)N2C(C)=O | inactive: -15.7%
45 | O=[N+]([O-])c1cccc2n[nH]nc12 | inactive: -24.2%
46 | CCc1nc2c(n1)c1c(non1O)c1c2no[n+]1[O-] | inactive: -23.8%
47 | CCc1ccc(OP(C)(=O)Nc2cccnc2)cc1 (configuration not stated) | inactive: -16%
48 | CP(=O)(Oc1ccccc1)N1CCOC1=O (configuration not stated) | inactive: -9.14%
49 | CP(=O)(Nc1ccc2c(c1)OCCO2)Oc1ccccc1 (configuration not stated) | inactive: -11.8%
50 | Cc1ccccc1NP(C)(=O)Nc1ccccc1C | inactive: -17.6%

Row | Compound | activity score
51 | O=P(Nc1nccs1)(c1ccccc1)c1ccccc1 | inactive: -9.91%
52 | CCOP(C)(=S)SCC(=O)NC(C)(CC)C(=O)O (configuration not stated) | inactive: -3.37%
53 | c1nnnn1CCn1cnnn1 | inactive: -17%
54 | O=[N+]([O-])c1ccc(OP2(=O)COCCO2)cc1 (configuration not stated) | inactive: -17.7%
55 | CC(=O)NC(SC(=S)N(C)C)C(Cl)(Cl)Cl (configuration not stated) | inactive: 0.582%
56 | O=[N+]([O-])c1ccc(O)c(/C=N/Nc2ccc([N+](=O)[O-])cc2[N+](=O)[O-])c1 | inactive: 22.2%
57 | Cc1cc(-c2cccc3ccccc23)c(C)cn1.O=[N+]([O-])c1cc([N+](=O)[O-])c(O)c([N+](=O)[O-])c1 | inactive: -9.64%
58 | O=[As](O)(c1ccccc1)c1ccc(O)cc1 | inactive: -14.9%
59 | Nc1ccc([As](=O)(O)c2ccc([N+](=O)[O-])cc2)cc1 | inactive: -3.52%
60 | Cc1c(C(c2ccc3c(c2)OCO3)c2c(C)n(C)n(-c3ccccc3)c2=O)c(=O)n(-c2ccccc2)n1C.O=[N+]([O-])c1cc([N+](=O)[O-])c(O)c([N+](=O)[O-])c1 | inactive: -13%
61 | O=C(OC1CN2CCC1CC2)c1cccc(Cl)c1 (configuration not stated) | inactive: -23.6%
62 | COc1ccc(N)c([N+](=O)[O-])c1[N+](=O)[O-] | inactive: 13.6%
63 | COc1ccc(OP(C)(=O)Nc2cccc(Br)c2)cc1 (configuration not stated) | inactive: -11.7%
64 | CN(C)C1(CNC(=O)c2ccc(Cl)c(S(N)(=O)=O)c2)CCCCC1 | inactive: -2.37%
65 | O=P(Nc1ccccn1)(c1ccc(Br)cc1)c1ccc(Br)cc1 | inactive: -7.4%
66 | C[C@H]1OP(=O)(Oc2ccccc2)[C@H](O)[C@H](O)[C@H]1N=[N+]=[N-] (some centres not stated) | inactive: -17.8%
67 | O=P(Nc1nc2ccccc2s1)(c1ccccc1)c1ccccc1 | inactive: -10.2%
68 | CN(C)CCOC(=O)C(O)(c1ccccc1)C1CCCCC1 (configuration not stated) | inactive: -19.1%
69 | COc1ccc(NP(C)(=O)Oc2ccccc2OC)cc1 (configuration not stated) | inactive: -11.5%
70 | CC(=O)NC(SC(=S)N(CC(C)C)CC(C)C)C(Cl)(Cl)Cl (configuration not stated) | inactive: -31.1%
71 | COC(=O)c1cc2c(s1)N=C(c1ccccc1)N(C)P2(=O)N1CCOCC1 (configuration not stated) | inactive: -1.28%
72 | Cc1c([N+](=O)[O-])cc([N+](=O)[O-])c(Br)c1[N+](=O)[O-] | inactive: -18.8%
73 | CCC(=O)N1C2C3N(C(=O)CC)C1C1N(C(=O)CC)C(C(N1C(=O)CC)N3C(=O)CC)N2C(=O)CC | inactive: -5.48%
74 | CCN(CC)CCCOC(=O)C(O)(c1ccccc1)C1CCCCC1 (configuration not stated) | inactive: 1.1%
75 | O=C(OC1CN2CCC1CC2)c1ccccc1 (configuration not stated) | inactive: -18.9%

Row | Compound | activity score
76 | CP(=O)(Nc1ccccc1)Oc1ccc(F)cc1 (configuration not stated) | inactive: -11.3%
77 | CN(C)C(=O)Oc1noc2ccccc12 | inactive: -5.41%
78 | O=[N+]([O-])c1cc([N+](=O)[O-])c(OC2CCCCC2O)c([N+](=O)[O-])c1 (configuration not stated) | inactive: -25.3%
79 | CCCCCOc1ccc(NP(C)(=O)Oc2ccc(Cl)cc2Cl)cc1 (configuration not stated) | inactive: -6.86%
80 | CC(NC(=O)COC(=O)C(O)(c1ccccc1)c1ccccc1)c1ccccc1 (configuration not stated) | inactive: 7.3%
81 | CCNC(=S)/N=C(\N)N[N+](=O)[O-] | inactive: 1.23%
82 | Cc1ccc(NP(=O)(Oc2cccc(C)c2)Oc2cccc(C)c2)nc1 | inactive: -18.7%
83 | CCOC(=O)c1ccc(NP(C)(=O)Oc2ccc(F)cc2)cc1 (configuration not stated) | inactive: -7.67%
84 | O=P1(N(CCCl)CCCl)OCCC2CCCCN21 (configuration not stated) | inactive: -19%
85 | CC(=O)c1ccc(N2CC2c2ccncc2)cc1 (configuration not stated) | inactive: -26.6%
86 | C[C@@H]1C=CCP(=O)(Oc2ccccc2)O1 (some centres not stated) | inactive: -21.9%
87 | C[C@H]1OP(=O)(Oc2ccccc2)C[C@@H]2O[C@@H]21 (some centres not stated) | inactive: -10.1%
88 | O=C(OCCN1CCN(CCOCc2ccccc2)CC1)C(O)(c1ccccc1)c1ccccc1 | inactive: -4.28%
89 | Cc1ccccc1CN(C)C(=O)COC(=O)C(O)(c1ccccc1)c1ccccc1 | inactive: 9.28%
90 | CC(=O)Nc1ccc(Oc2c([N+](=O)[O-])cc([N+](=O)[O-])cc2[N+](=O)[O-])cc1 | inactive: -0.107%
91 | COc1ccc2c(c1O)-c1c(O)c(OC)cc3c1[C@H](C2)[N+](C)(C)CC3.O=[N+]([O-])c1cc([N+](=O)[O-])c([O-])c([N+](=O)[O-])c1[O-] | inactive: -6.42%
92 | CC(=O)Nc1ccc([As](=O)(O)O)c(O)c1 | inactive: -22.5%
93 | O=P1(Nc2nc3ccc(Cl)cc3s2)COc2ccccc2O1 (configuration not stated) | inactive: -21.9%
94 | O=[N+]([O-])c1cc([N+](=O)[O-])c(Nc2ccc(Cl)cc2)c([N+](=O)[O-])c1 | inactive: -37.8%
95 | CP(=O)(Nc1ccccc1F)Oc1ccccc1 (configuration not stated) | inactive: -7.58%
96 | CCc1cc(O)c([N+](=O)[O-])c(C)c1[N+](=O)[O-] | inactive: -13.9%
97 | CCCOP(=S)(Nc1nc(N)cc(=O)[nH]1)OCCC | inactive: -19.1%
